Biological target: Cyclin-dependent kinase 5/CDK5 activator 1 (Homo sapiens, UniProt Q00535)
Assay: Inhibition of Cyclin-dependent kinase 5-p35nck5a
Type: protein-complex assay
How it was run: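 Recombinant CDK5 and p25 (truncated p35), each expressed in E. coli as a GST fusion and glutathione-agarose purified, mixed in equal amounts. Assayed in buffer C with histone H1 and 15 µM [γ-33P]ATP, 10 min at 30 °C. Read by P81 filter capture and scintillation counting. Expressed as % of uninhibited activity. Duplicates; IC50 determined.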

By UniProt entry, the sequences of proteins in these tests, tags left out.
UniProt Q00535, whole entry: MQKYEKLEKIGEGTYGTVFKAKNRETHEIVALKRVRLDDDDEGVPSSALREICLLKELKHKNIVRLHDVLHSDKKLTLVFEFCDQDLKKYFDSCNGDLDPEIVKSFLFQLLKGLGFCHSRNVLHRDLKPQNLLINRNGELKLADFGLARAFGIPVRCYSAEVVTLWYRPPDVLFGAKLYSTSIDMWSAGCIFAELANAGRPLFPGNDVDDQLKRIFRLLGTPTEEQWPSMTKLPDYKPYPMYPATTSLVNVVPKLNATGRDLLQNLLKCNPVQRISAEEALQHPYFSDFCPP

Work on `O=C1Nc2ccccc2/C1=C1/Nc2ccccc2C1=O` [INDIRUBIN] yielded an IC50 of 5 µM.
